Experimental data: patent US11401278B2, “Macrocyclic indole derivatives” (The Broad Institute, Inc., priority 2017, dated 2022)
Several values for one entry are separate records, joined by “and”; a condition that tells them apart may be missing. Equal values may be shown once.

Test system: AMO-1
Assay: Antiproliferation assay (Assay 7), AMO-1
Details: read-out: Antiproli AMO-1 [M] IC50, CellTiter-Glo, 72 hours, several values per example
Description: Assessment of the Anti-Proliferative Effect of Compounds in Different Cell Lines
The impact of compounds on the proliferation of different cell lines was assessed using the CellTiter-Glo® Luminescent Cell Viability reagent from Promega (G7573).
The different cell lines were plated in culture medium (RPMI 1640 [Biochrom; #FG 1215] supplemented with 10% Fetal Calf Serum [Biochrom; #S 0415]) at a density of 3,300 cells (for suspension cells) or 800 cells (for adherent cells) in 30 μl/well in a sterile, solid black, flat bottom, polystyrene, TC-treated 384-well microplate (Corning #3571) using Multidrop Combi Reagent Dispenser. In parallel, cells were plated in a reference (day 0) plate for time zero determination. […]
On the next day, cells were treated with compounds (stock solution, 10 mM in DMSO) using the HP D300 Digital Dispenser in a concentration range of 3.3×10e-5 M (33 μM) to 5×10e-9 M (5 nM) in a single-dot curve with at least 16 dilutions and a DMSO concentration of 0.33%. […] The day 0 plate was measured by adding 30 μL/well of CTG solution (CellTiter-Glo® Luminescent Cell Viability reagent, Promega G7573) to time zero wells in the reference plate followed by a 10 minutes incubation and luminescence reading at 0.1 ms. using the PHERAstar FS microplate reader (BMG Labtech).
After 72 hours incubation, the treated plates were measured in the same way as the day 0 plate mentioned above. […]

CCc1c2c(nn1C)CNS(=O)(=O)CCCn1c(C(=O)O)c(CCCOc3cccc4cc(F)ccc34)c3ccc(Cl)c-2c31
IC50: 1e-06 M and 8.2e-07 M
